These results are taken from ChEMBL document CHEMBL1136823, “Lead discovery of alpha,beta-unsaturated sulfones from a combinatorial library as inhibitors of inducible VCAM-1 expression” (Bioorg Med Chem Lett, 2003).

The nature of the assay: In vitro inhibition of inducible vascular cell adhesion molecule-1 (VCAM-1) expression in Human aortic endothelial cells (HAEC).

Broadly, the IC50 is the midpoint of a concentration-inhibition curve. A high value points to weaker potency. The molecule `C=CS(=O)(=O)C=C` showed a half-inhibitory concentration (IC50) of 5 µM.
